Laboratory results reported in patent publication US20240139206A1, “METHODS OF TREATMENT” (Kinoxis Therapeutics Pty Ltd, priority 2021, published 2024).
Entries after “also recorded” stand apart in the source; their conditions may differ.

System: single housed hyper-aggressive male Swiss mice
Assay: Isolation-induced aggression model, two mouse social interaction test
Format: in vivo
Source text: This model has been chosen as it is considered to have excellent predictive validity toward human aggression and face validity for modelling offensive impulsive aggression in human aggression and it leads specifically to alterations in aggressive behaviour without confounding changes in other behaviours. This model has also been used for the screening/identification of potential serenics for use in treating aggression/agitation in dementias and related disorders.
Eighty male Swiss mice (ARC, Perth, Australia) aged 6-7 weeks upon arrival were used for objectives (1) and (3) in this study, 30 mice of the same age and strain were used for objective (2). Subjects were housed four per cage in a temperature-controlled colony room (22° C.±1° C.) under standard laboratory conditions (12-hour light/dark cycle; light phase 0700-1900 hours) upon arrival. Mice were housed in standard IVC cages. Mice had ad libitum access to food and water in their home cages. All experiments were performed during the light phase. All experimental procedures were approved by University of Sydney Animal Ethics Committee.
After allowing 1 week for acclimatisation, n=64 mice were rendered hyper-aggressive by moving them into single housing, whereas n=16 animals were housed in groups of four. During this time, all mice were weighed at least once per week. […]

Q: Which “distance travelled vs vehicle treated single housed mice” value (Example 4: 0.1 mg/kg risperidone or 10 mg/kg KNX100 dihydrochloride salt) does the source give for Cc1nc2n(c(=O)c1CCN1CCC(c3noc4cc(F)ccc34)CC1)CCCC2 [risperidone, reference compound] here?
A: travelled significantly less distance; also recorded: significantly reduced distance travelled

Q: What about the “distance travelled / locomotor activity, risperidone compared with KNX100” value (Example 4: 0.1 mg/kg risperidone vs 10 mg/kg KNX100) of the same compound?
A: also travelled significantly less distance than mice treated with 10 mg/kg KNX100; also recorded: caused significantly more inhibition of locomotor activity than KNX100
